Experimental data: patent US20230218577A1, “USE OF HEAT SHOCK PROTEIN INHIBITORS FOR THE TREATMENT OF NEURODEVELOPMENTAL DISORDERS” (The Children's Medical Center Corporation, priority 2020, published 2023)
Where two headings read alike, the source gives them in different places. Peptide text beside a SMILES is read from it. * marks the point of attachment. CH2Cl = ClC*

Tested on: mTORC1 activity (pS6) in Tsc2-sh hippocampal neurons
Assay: mTORC1 high-content screen (mTORC1^HCA) with the Biomol collection library
[1] = Z-score of percent GFP+pS6+ neurons in compound-treated Tsc2-knockdown wells, DIV20, Biomol library screen, replica 1
[2] = Z-score of percent GFP+pS6+ neurons in compound-treated Tsc2-knockdown wells, DIV20, Biomol library screen, replica 2
[3] = Z-score of percent GFP+pS6+ neurons in compound-treated Tsc2-knockdown wells, DIV20, Biomol library, replica 1
[4] = Z-score of percent GFP+pS6+ neurons in compound-treated Tsc2-knockdown wells, DIV20, Biomol library, replica 2

| Compound | T2 Zscore (Replica 1) | T2 Zscore (Replica 2) | further results |
| --- | --- | --- | --- |
| CC(C)COCC(CN(Cc1ccccc1)c1ccccc1)N1CCCC1.Cl (stereo not drawn) [Bepridil • HCl] | – | – | T2 Zscore (Replica 1) [1]: 0.6008; T2 Zscore (Replica 2) [2]: −0.283 |
| CS(=O)(=O)Nc1ccc([N+](=O)[O-])cc1OC1CCCCC1 [NS-398] | – | – | T2 Zscore (Replica 1) [1]: 1.289; T2 Zscore (Replica 2) [2]: −0.5141 |
| O=C(/C=C/c1ccc(O)c(O)c1)OCCc1ccccc1 [CAPE] | 0.3791 | −0.592 | – |
| C=C(C)[C@H]1O[C@H]2CC[C@@]3(C)[C@@](O)(CC[C@H]4[C@@H]5OC(C)(C)[C@H]6C[C@@H]7C(=C)Cc8c(Cl)cc9[nH]c(c5c9c8[C@@]76O)[C@@]43C)[C@@]23O[C@H]3[C@H]1O [Penitrem A] | −0.8454 | 2.556 | – |
| CC1(C)CCC(C)(C)c2cc(C(=O)Nc3ccc(C(=O)O)cc3)ccc21 [AM-580] | −0.2813 | −0.2561 | – |
| CCCCCCCCCCCCCCC[C@@H](O)[C@@H](N)CO [Dihydrosphingosine] | – | – | T2 Zscore (Replica 1) [1]: 0.04572; T2 Zscore (Replica 2) [2]: 1.202 |
| CCCC[C@@H](C)/C=C(C)/C=C(\C)C(=O)NC1=C[C@@](O)(/C=C/C=C/C=C/C(=O)NC2=C(O)CCC2=O)[C@@H]2O[C@@H]2C1=O [Manumycin A] | −0.4339 | −0.4213 | – |
| CCCCC(C)(O)C/C=C/[C@H]1[C@H](O)CC(=O)[C@@H]1CCCCCCC(=O)O (mixture of isomers) [Misoprostol, free acid] | – | – | T2 Zscore (Replica 1) [1]: 0.7325; T2 Zscore (Replica 2) [2]: 0.625 |
| CC1(COc2ccc(CC3SC(=O)NC3=O)cc2)CCCCC1 (stereo not drawn) [Ciglitazone] | – | – | T2 Zscore (Replica 1) [1]: 0.9838; T2 Zscore (Replica 2) [2]: 0.2294 |
| Tunicamycin | −0.9103 | −0.2481 | – |
| O=C(O)c1ccccc1Nc1cccc(C(F)(F)F)c1 [Flufenamic acid] | – | – | T2 Zscore (Replica 1) [1]: 0.8655; T2 Zscore (Replica 2) [2]: 0.1241 |
| COc1ccc2c(c1)c(CC(=O)N1CCOCC1)c(C)n2C(=O)c1ccc(Cl)cc1 [BML-190] | 0.3255 | 0.1725 | – |
| CCCCC/C=C\C/C=C\C/C=C\C/C=C\CCCC(=O)O[C@H](COCCCCCCCCCCCCCCCC)COP(=O)([O-])OCC[N+](C)(C)C [Arachidonoyl-PAF] | 0.3634 | −0.7092 | – |
| O=c1oc(Cl)c(Cl)c2ccccc12 [3,4-dichloroisocoumarin] | – | – | T2 Zscore (Replica 1) [1]: 0.3453; T2 Zscore (Replica 2) [2]: 1.548 |
| CC1=C(/C=C/C(C)=C/C=C/C(C)=C/C(=O)Nc2ccc(O)cc2)C(C)(C)CCC1 [4-hydroxyphenylretinamide] | −0.2968 | 0.2379 | – |
| N#CC(=C(/N)Sc1ccccc1N)/C(C#N)=C(/N)Sc1ccccc1N [U-0126] | 0.03378 | 0.5725 | – |
| C[C@@]1(C2CCCC2)Cc2cc(OCC(=O)O)c(Cl)c(Cl)c2C1=O [R(+)-IAA-94] | 0.6402 | 0.5789 | – |
| O=C1Nc2ccccc2/C1=C1/Nc2ccccc2/C1=N\O [ndirubin-3′-monoxime] | −0.09634 | −0.02118 | – |
| Oc1c2ccccc2c2c3c(cccc13)N=N2 [SP-600125] | – | – | T2 Zscore (Replica 1) [1]: 0.4069; T2 Zscore (Replica 2) [2]: 0.05215 |
| CCOC(=O)C1=C(C)NC(C)=C(C(=O)OC)C1c1cccc([N+](=O)[O-])c1 (stereo not drawn) [Nitrendipine] | – | – | T2 Zscore (Replica 1) [1]: 0.1595; T2 Zscore (Replica 2) [2]: −0.1508 |
| CCCCCCOC(=O)[C@]1(O)C[C@@H]2O[C@@]1(C)n1c3ccccc3c3c4c(c5c6ccccc6n2c5c31)C(=O)NC4 [KT-5720] | −0.2105 | −0.686 | – |
| C=C1CCC(O)C/C1=C\C=C1\CCCC2(C)C1CCC2C(C)CCC(O)C(C)(C)O (stereo not drawn) [24,25-Dihydroxyvitamin D3] | 0.5307 | 0.06636 | – |
| CS(=O)(=O)O.Cc1c(C(=O)c2cccc3ccccc23)c2cccc3c2n1[C@H](CN1CCOCC1)CO3 [WIN 55,212-2 mesylate] | 1.287 | 1.96 | – |
| C[C@H](N)C(=O)N[C@@H](C)C(=O)N[C@@H](Cc1ccccc1)C(=O)CCl [Ala-Ala-Phe-CMK] (H-Ala-Ala-Phe-CH2Cl) | 1.366 | 0.2566 | – |
| O=C(O)c1cc([N+](=O)[O-])ccc1NCCCc1ccccc1 [NPPB] | 0.8821 | 1.478 | – |
| CNC(=O)[C@H](Cc1c[nH]c2ccccc12)NC(=O)[C@@H](CC(=O)NO)CC(C)C [GM6001] | – | – | T2 Zscore (Replica 1) [1]: −0.3419; T2 Zscore (Replica 2) [2]: 0.886 |
| C=C1[C@@H](C)[C@H]2[C@H](Cc3ccccc3)NC(=O)[C@]23OC(=O)/C=C/[C@H](O)CCC[C@@H](C)C/C=C/[C@H]3[C@@H]1O [Cytochalasin B] | −0.4259 | −3.902 | – |

| Compound | T2 Zscore (Replica 1) | T2 Zscore (Replica 2) | further results |
| --- | --- | --- | --- |
| CN(C)c1ccc(/C=C2\C(=O)Nc3ccccc32)cc1 [SU-4312] | 0.8944 | 0.4016 | – |
| CCOC(=O)CN1C(=O)CC(C[C@@H](O)[C@@H]2C[C@@H](C)C[C@H](C)C2=O)CC1=O [Cycloheximide-N-ethylethanoate] | 0.08188 | 1.208 | – |
| CCCCC[C@H](O)/C=C/[C@H]1[C@H](O)CC(=O)[C@@H]1C/C=C\CCCC(=O)O [Prostaglandin E2] | – | – | T2 Zscore (Replica 1) [3]: 0.6938; T2 Zscore (Replica 2) [4]: 1.301 |
| CCCCC/C=C\C[C@@H](/C=C/C=C\C/C=C\CCCC(=O)O)OO [12(S)-HPETE] | 0.5522 | 0.007363 | – |
| ICRF-193 | 0.02887 | 0.1794 | – |
| CC(C)C[C@@H](/C=C/S(C)(=O)=O)NC(=O)[C@H](CC(C)C)NC(=O)[C@H](CC(C)C)NC(=O)OCc1ccccc1 [Z-Leu3-VS] | −0.2626 | 0.8832 | – |
| CC1=C(/C=C/C(C)=C\C=C\C(C)=C\C(=O)O)C(C)(C)CCC1 [9-cis Retinoic acid] | – | – | T2 Zscore (Replica 1) [1]: 1.135; T2 Zscore (Replica 2) [2]: −0.4761 |
| CC(=O)OCOC(=O)CN(CC(=O)OCOC(C)=O)c1ccccc1OCCOc1ccccc1N(CC(=O)OCOC(C)=O)CC(=O)OCOC(C)=O [BAPTA-AM] | −0.1651 | −0.6781 | – |
| CCCCCCCCCCCCC/C=C/[C@@H](O)[C@H](CO)NC(C)=O [C2 Ceramide] | 0.1437 | 0.8185 | – |
| CCCCC/C=C\C/C=C\CCCCCCCC(=O)NCCO [Anandamide (18:2,n-6)] | −0.01301 | −0.05125 | – |
| 2-APB | 0.1417 | 0.0331 | – |
| Cl.N/C(=N\C(=O)c1nc(Cl)c(N)nc1N)NCc1ccccc1 [Benzamil•HCl] | 0.1506 | −0.9416 | – |
| CS(=O)(=O)Nc1ccc([N+](=O)[O-])cc1Oc1ccccc1 [Nimesulide] | – | – | T2 Zscore (Replica 1) [3]: 0.7431; T2 Zscore (Replica 2) [4]: 1.024 |
| CCCCC[C@H](O)/C=C/C1=C(CCCCCCC(=O)O)C(=O)CC1 [Prostaglandin B1] | 0.1925 | −0.4985 | – |
| CCCCCCCCCCCCCCCCOC[C@H](COP(=O)([O-])OCC[N+](C)(C)C)OC(=O)NC [C-PAF] | −0.1058 | −0.2275 | – |
| COc1ccc(C2CNC(=O)C2)cc1OC1CCCC1 (stereo not drawn) [Rolipram] | – | – | T2 Zscore (Replica 1) [1]: 0.2553; T2 Zscore (Replica 2) [2]: 0.02387 |
| CC(=O)O[C@H]1C(=O)[C@@]2(C)[C@H]([C@H](OC(=O)c3ccccc3)[C@]3(O)C[C@H](OC(=O)[C@H](O)[C@@H](NC(=O)c4ccccc4)c4ccccc4)C(C)=C1C3(C)C)[C@]1(OC(C)=O)CO[C@@H]1C[C@@H]2O [Taxol = Paclitaxel] | – | – | T2 Zscore (Replica 1) [3]: 1.488; T2 Zscore (Replica 2) [4]: 1.061 |
| O=C(O)c1ccccc1Nc1ccccc1 [N-Phenylanthranilic acid] | – | – | T2 Zscore (Replica 1) [1]: 0.1388; T2 Zscore (Replica 2) [2]: −0.2022 |
| Clc1cccc(Cl)c1N=C1NCCN1 [Clonidine] | – | – | T2 Zscore (Replica 1) [1]: 1.179; T2 Zscore (Replica 2) [2]: −0.6314 |
| C/C(O)=C(\C#N)C(=O)Nc1cc(Br)ccc1Br [LFM-A13] | −0.8437 | 0.1668 | – |
| CCCCC[C@H](O)/C=C/[C@@H]1[C@H](C/C=C\CCCC(=O)O)[C@@H](O)C[C@H]1O [8-epi-Prostaglandin F2a] | −0.3759 | −0.1808 | – |
| CO[C@@H]1[C@H](C)[C@H]([C@]2(C)CC[C@H]([C@]3(C)CC[C@]4(C[C@H](OC)[C@@H](C)[C@@H]([C@@H](C)[C@H]5O[C@@](O)([C@H](C)C(=O)O)[C@H](C)[C@@H](OC)[C@H]5C)O4)O3)O2)O[C@H]1[C@H]1O[C@](C)(O)[C@H](C)[C@@H](OC)[C@@H]1C [lonomycin] | 0.1261 | 0.4393 | – |
| CC[C@@]1(O)C(=O)OCc2c1cc1n(c2=O)Cc2cc3ccccc3nc2-1 [Camptothecin] | −1.73 | −2.009 | – |
| COc1cc(-c2ccc(=O)[nH]n2)ccc1OC(F)F [Zardaverine] | – | – | T2 Zscore (Replica 1) [3]: 0.7329; T2 Zscore (Replica 2) [4]: 1.771 |
| Nc1ncnc2c1c(I)cn2[C@@H]1O[C@H](CO)[C@@H](O)[C@H]1O [5-Iodotubercidin] | −1.537 | −1.555 | – |
| OC[C@H]1NC[C@H](O)[C@@H](O)[C@@H]1O [1-Deoxynojirimycin] | – | – | T2 Zscore (Replica 1) [1]: 0.4012; T2 Zscore (Replica 2) [2]: −0.101 |
| COC(=O)Nc1nc2ccc(C(=O)c3cccs3)cc2[nH]1 [Nocodazole] | – | – | T2 Zscore (Replica 1) [3]: 1.308; T2 Zscore (Replica 2) [4]: 0.5318 |
